Test results published in patent US8956445B2, “High stability diionic liquid salts” (Sigma-Aldrich Co., priority 2004, dated 2015).

Assays:
[1] = Surface tension (DuNuoy Tensiometer); format: physicochemical; conditions: room temperature (23° C.)
[2] = Density (2.0 mL volumetric tube, weighing by difference); format: physicochemical; conditions: 23° C.
Protocol: The densities of the ionic liquids or, more correctly, […] (used synonymously except as indicated otherwise explicitly or by context) was determined at 23° C. by placing 2.0 mL of the ionic liquid in a 2.0 mL volumetric tube and weighing by difference. The melting points of the ionic liquids were determined using a Perkin Elmer Pyris 1 Differential Scanning calorimeter (Boston, Mass.). Typical methods involved using a 10° C./min temperature ramp to determine and identify the first and second order thermal transitions. […] For solid compounds, the melting points were verified using a capillary melting point apparatus. Refractive index measurements were conducted at 23° C. using a Bausch & Lomb Abbe-3L refractometer.

Substance | Miscibility with Heptane | Miscibility with Water | Surface Tension [1] | Density [2] | Miscibility with Water (listed as 28)
1,9-di(butylpyrrolidinium)nonane di-bromide [C9(bpy)2-Br] | Immiscible | Miscible | – | – | –
1,12-di(3-methylimidazolium)dodecane di-bromide [C12(mim)2-Br] | Immiscible | Miscible | 57.9 dynes/cm | 1.27 g/mL | –
1,12-di(3-benzylimidazolium)dodecane di-bromide [C12(benzim)2-Br] | Immiscible | Immiscible | – | – | insoluble in water
1,9-di(methylpyrrolidinium)nonane di-bromide [C9(mpy)2-Br] | Immiscible | Miscible | – | – | –
1,6-di(3-melhylimidazolium)hexane di-bromide [C6(mim)2-Br] | Immiscible | Miscible | – | – | –

Where two headings read alike, the source gives them in different places.
